US9353061B2, “3,5,N-trihydroxy-alkanamide and derivatives: method for making same and use thereof” (Academia Sinica, priority 2012, dated 2016)

Chains of the proteins cited; added tags and fusions are not shown. Lines headed by an entry give the natural chain unless they say otherwise; changes in a name come on top. Residues count along the entry.
UniProt P04035, 426-888: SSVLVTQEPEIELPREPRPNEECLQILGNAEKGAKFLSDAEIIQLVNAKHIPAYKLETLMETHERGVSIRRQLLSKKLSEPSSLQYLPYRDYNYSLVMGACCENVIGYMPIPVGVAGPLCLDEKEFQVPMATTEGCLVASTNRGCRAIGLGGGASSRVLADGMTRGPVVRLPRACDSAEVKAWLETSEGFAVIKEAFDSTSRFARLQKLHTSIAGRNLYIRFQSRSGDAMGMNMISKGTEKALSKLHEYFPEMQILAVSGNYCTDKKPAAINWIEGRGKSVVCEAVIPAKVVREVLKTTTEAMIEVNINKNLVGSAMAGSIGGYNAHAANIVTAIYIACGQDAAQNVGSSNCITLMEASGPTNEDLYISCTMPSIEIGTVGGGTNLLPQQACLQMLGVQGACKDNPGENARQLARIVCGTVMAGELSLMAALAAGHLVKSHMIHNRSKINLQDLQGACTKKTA
UniProt Q9UBN7: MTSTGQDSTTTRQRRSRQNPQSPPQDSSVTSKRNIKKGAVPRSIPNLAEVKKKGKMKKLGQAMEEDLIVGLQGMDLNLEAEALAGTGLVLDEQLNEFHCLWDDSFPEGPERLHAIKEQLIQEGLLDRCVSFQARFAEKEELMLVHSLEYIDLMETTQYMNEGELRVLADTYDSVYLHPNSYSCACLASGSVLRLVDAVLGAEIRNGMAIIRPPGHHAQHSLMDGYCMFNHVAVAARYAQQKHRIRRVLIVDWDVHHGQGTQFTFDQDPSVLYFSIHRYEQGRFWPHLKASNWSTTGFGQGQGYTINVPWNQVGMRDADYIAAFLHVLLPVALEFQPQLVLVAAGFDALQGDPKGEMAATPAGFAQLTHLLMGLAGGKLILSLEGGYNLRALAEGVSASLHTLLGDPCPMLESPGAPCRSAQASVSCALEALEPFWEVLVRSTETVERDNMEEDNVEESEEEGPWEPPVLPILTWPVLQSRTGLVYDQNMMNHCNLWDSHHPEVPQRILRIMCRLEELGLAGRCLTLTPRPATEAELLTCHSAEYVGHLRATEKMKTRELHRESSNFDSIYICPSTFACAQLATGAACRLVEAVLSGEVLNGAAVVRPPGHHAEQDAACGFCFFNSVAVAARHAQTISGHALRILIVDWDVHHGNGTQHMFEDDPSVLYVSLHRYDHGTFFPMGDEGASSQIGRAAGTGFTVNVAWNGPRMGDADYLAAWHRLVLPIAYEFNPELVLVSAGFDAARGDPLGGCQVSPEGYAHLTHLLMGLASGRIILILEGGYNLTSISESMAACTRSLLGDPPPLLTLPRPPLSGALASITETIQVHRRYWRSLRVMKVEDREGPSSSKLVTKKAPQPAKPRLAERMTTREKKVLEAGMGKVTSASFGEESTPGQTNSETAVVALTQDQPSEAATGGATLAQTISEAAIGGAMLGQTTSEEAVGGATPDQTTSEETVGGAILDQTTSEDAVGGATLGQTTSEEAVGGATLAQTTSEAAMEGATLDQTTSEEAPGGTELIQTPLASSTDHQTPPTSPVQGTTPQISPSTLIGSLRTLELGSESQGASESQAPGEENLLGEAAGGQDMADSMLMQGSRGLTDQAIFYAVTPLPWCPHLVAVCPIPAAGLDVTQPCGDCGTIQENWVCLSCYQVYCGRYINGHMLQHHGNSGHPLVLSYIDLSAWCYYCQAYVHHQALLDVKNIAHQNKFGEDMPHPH

Assays:
HMG-CoA reductase (HMGR) = HMG-CoA reductase (HMGR) (Homo sapiens (Human), UniProt P04035); assay: HMG-CoA reductase activity assay (NADPH consumption, Sigma kit); type: biochemical; settings: human recombinant protein
Experimental: The HMGR activity was performed using HMG-CoA reductase assay kit from Sigma-Aldrich with the human recombinant protein or 100 μg total cell lysates from A549 cells. […] HMGR activity under defined assay conditions, containing NADPH and HMG-CoA substrate in a final volume of 0.2 mL of 100 mM potassium phosphatate buffer (120 mM KCl, 1 mM EDTA, 5 mM DTT, pH 7.4), were initiated in the presence or absence (control) of test compounds dissolved in dimethylsulfoxide (DMSO). The rates of NADPH consumption were monitored every 20 seconds, for up to 10 minutes, by spectrophotometer at 37° C. and 340 nm. The HMGR activity was calculated as a percentage of activity compared with the control group at 5 min. The IC50 values were calculated from software SigmaPlot.
(§1) HDAC fluorometric activity assay was performed using Fluor-de-Lys as the substrate (BIOMOL, Plymouth Meeting, Pa., USA), and HMGR inhibition was evaluated by the […].

HDAC6 = HDAC6 (Homo sapiens (Human), UniProt Q9UBN7); assay: HDAC fluorimetric activity assay (Fluor-de-Lys); type: biochemical; settings: recombinant HDAC6
Experimental: The HDAC activity was performed using the HDAC fluorescent activity assay kit (BIOMOL, Plymouth Meeting, Pa., USA) according to the manufacturer's instructions. Briefly, recombinant proteins of HDAC1 or HDAC6 were incubated with test compounds, and HDAC reaction was initiated by addition of Fluor-de-Lys substrate. Samples were incubated for 10 min at room temperature, followed by adding developer to stop the reaction. Fluorescence was measured by fluorometric reader with excitation at 360 nm and emission at 460 nm. The HDAC activity was expressed as arbitrary fluorescence units (AFU). The HDAC activity was calculated as a percentage of activity compared with the control group. The half maximal inhibitory concentration (IC50) values for the test compounds were calculated from software SigmaPlot.
as §1

CC(C)c1c(C(=O)Nc2ccccc2)c(-c2ccccc2)c(-c2ccc(F)cc2)n1CC[C@@H](O)C[C@@H](O)CC(=O)O [Atorvastatin, atorvastatin, reference compound]
IC50 (HMG-CoA reductase (HMGR)): 11.6 nM | IC50 (HDAC6): 14200 nM
